Target: T1, Glucagon-like peptide 2 receptor (Homo sapiens, UniProt O95838)
T1 sequence (O95838 whole entry): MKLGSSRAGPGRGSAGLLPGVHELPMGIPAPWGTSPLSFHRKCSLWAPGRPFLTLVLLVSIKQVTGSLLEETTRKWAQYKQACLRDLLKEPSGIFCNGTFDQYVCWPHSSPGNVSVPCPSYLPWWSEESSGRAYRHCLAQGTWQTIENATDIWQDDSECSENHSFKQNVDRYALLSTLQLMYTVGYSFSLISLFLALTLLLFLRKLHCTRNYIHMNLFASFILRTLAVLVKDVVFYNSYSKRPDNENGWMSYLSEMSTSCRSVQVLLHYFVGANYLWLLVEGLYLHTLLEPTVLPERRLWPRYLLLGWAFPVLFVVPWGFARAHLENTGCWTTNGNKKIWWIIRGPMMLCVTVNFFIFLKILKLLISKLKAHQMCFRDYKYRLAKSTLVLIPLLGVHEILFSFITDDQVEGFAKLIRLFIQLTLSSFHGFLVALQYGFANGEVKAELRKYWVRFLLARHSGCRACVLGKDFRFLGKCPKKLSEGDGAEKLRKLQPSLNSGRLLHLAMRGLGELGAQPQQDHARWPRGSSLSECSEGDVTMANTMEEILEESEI
Test: Agonist activity at recombinant human GLP-2R overexpressed in HEK293 cells assessed as cAMP accumulation by HTRF assay
Assay type: functional, cell-based

- EC50: 0.03 nM
SMILES: CC[C@H](C)[C@H](NC(=O)[C@H](Cc1ccccc1)NC(=O)[C@H](CC(=O)O)NC(=O)[C@H](CCCNC(=N)N)NC(=O)[C@H](C)NC(=O)[C@H](C)NC(=O)[C@H](CC(C)C)NC(=O)[C@H](CC(N)=O)NC(=O)[C@H](CC(=O)O)NC(=O)[C@H](CC(C)C)NC(=O)[C@@H](NC(=O)[C@@H](NC(=O)[C@H](CC(N)=O)NC(=O)[C@H](CCSC)NC(=O)[C@H](CCC(=O)O)NC(=O)[C@H](CC(=O)O)NC(=O)[C@H](CO)NC(=O)[C@H](Cc1ccccc1)NC(=O)[C@H](CO)NC(=O)CNC(=O)[C@H](CC(=O)O)NC(=O)CNC(=O)[C@@H](N)Cc1c[nH]cn1)[C@@H](C)O)[C@@H](C)CC)C(=O)N[C@@H](CC(N)=O)C(=O)N[C@@H](Cc1c[nH]c2ccccc12)C(=O)N[C@@H](CC(C)C)C(=O)N[C@H](C(=O)N[C@@H](CCC(N)=O)C(=O)N[C@H](C(=O)N[C@@H](CCCCN)C(=O)N[C@H](C(=O)N[C@H](C(=O)N[C@@H](CC(=O)O)C(=O)O)[C@@H](C)O)[C@@H](C)CC)[C@@H](C)O)[C@@H](C)CC [TEDUGLUTIDE]
